Results from PMC7084495, “Discovery of 1-Pyrimidinyl-2-Aryl-4,6-Dihydropyrrolo [3,4-d]Imidazole-5(1H)-Carboxamide as a Novel JNK Inhibitor” (International Journal of Molecular Sciences, 2020).

Sequences of proteins named here, by UniProt entry; tags and fusion partners are left off. A change or cut given only in a name is not applied to a line headed by its entry.
UniProt P53779: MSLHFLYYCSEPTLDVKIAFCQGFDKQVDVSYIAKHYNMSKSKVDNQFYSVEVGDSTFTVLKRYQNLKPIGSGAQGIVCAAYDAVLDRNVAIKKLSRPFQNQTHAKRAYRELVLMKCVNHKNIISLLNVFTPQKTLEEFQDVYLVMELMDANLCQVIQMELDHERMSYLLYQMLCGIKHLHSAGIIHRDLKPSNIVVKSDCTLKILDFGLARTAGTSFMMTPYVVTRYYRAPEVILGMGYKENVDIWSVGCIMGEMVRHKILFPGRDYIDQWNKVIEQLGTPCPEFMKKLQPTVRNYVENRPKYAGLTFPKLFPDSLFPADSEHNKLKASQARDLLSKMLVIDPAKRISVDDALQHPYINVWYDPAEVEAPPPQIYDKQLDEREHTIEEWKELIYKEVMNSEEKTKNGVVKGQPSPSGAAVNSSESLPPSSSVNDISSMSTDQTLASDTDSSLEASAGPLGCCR
UniProt Q9Y572: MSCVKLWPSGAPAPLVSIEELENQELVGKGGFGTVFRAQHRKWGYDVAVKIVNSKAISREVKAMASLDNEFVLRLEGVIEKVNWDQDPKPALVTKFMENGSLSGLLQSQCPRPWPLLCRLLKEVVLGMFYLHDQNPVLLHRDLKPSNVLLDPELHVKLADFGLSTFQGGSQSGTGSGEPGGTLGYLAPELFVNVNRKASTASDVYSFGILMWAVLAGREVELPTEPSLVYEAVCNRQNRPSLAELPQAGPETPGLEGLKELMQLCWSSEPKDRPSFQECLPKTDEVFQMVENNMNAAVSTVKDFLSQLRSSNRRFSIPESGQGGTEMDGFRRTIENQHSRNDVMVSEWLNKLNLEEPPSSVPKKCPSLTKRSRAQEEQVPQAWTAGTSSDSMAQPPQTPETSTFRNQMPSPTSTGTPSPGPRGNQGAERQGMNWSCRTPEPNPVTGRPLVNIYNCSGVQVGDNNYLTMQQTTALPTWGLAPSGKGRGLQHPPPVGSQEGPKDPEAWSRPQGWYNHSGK
UniProt P49841: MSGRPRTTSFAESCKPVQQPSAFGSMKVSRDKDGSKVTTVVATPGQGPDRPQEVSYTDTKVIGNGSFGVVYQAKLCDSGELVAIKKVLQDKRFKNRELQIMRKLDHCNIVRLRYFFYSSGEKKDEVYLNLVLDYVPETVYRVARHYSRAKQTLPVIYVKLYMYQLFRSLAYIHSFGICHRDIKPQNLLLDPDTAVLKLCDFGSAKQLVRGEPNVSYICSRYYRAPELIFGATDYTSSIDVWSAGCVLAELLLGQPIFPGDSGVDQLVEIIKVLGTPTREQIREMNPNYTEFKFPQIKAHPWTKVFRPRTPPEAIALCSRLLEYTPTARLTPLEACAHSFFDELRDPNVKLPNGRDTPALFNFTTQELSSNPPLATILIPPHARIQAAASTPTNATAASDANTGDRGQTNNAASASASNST

Tests used:
JNK3 (h) = biological target: T1, JNK3 (h) (Homo sapiens, UniProt P53779); test: JNK3 kinase inhibition, Reaction Biology Kinase HotSpot radiometric assay; format: biochemical
T1 construct: purchased Reaction Biology Corp. (Kinase HotSpot service)
Excerpt: (specific activity approx. 500 cpm/pmol, concentration as required).

RIPK3 = RIPK3 (Homo sapiens, UniProt Q9Y572); test: biochemical; settings: read-out: enzymatic inhibition of RIPK3 in kinase panel screening
Experimental: (§1) (specific activity approx. 500 cpm/pmol, concentration as required). […] After incubation for 40 min at room temperature, the reaction was stopped by the addition of 5 μL of a 3% phosphoric acid solution.

GSK3β = GSK3β (Homo sapiens, UniProt P49841); test: biochemical
Experimental: as §1

JNK2 = JNK2 (Homo sapiens, UniProt P45984); test: biochemical
Experimental: as §1

[1] = enzymatic activity, ATP 10 μM, read-out: JNK3 IC50

Row | SMILES | IC50 (JNK3 (h); [1]) | IC50 (JNK3 (h)) | other results
1 | NC(=O)N1Cc2nc(-c3ccc4ccccc4c3)n(-c3ccnc(N[C@H]4CCCN(C(=O)C5CC5)C4)n3)c2C1 [Compound 17b, (S)-1-(2-((1-(Cyclopropanecarbonyl)piperidin-3-yl)Amino)Pyrimidin-4-yl)-2-(Naphthalen-2-yl)-4,6-Dihydropyrrolo[3,4-d]Imidazole-5(1H)-Carboxamide] | 4.81 nM |  | 
2 | NC(=O)N1Cc2nc(-c3ccc4c(c3)OCO4)n(-c3ccnc(N[C@H]4CCCN(C(=O)C5CC5)C4)n3)c2C1 [Compound 17c, (S)-2-(Benzo[d][1,3]Dioxol-5-yl)-1-(2-((1-(Cyclopropanecarbonyl)Piperidin-3-yl)Amino)Pyrimidin-4-yl)-4,6-Dihydropyrrolo[3,4-d]Imidazole-5(1H)-Carboxamide] |  | 131 nM | 
3 | NC(=O)N1Cc2nc(-c3ccc4c(c3)CCO4)n(-c3ccnc(N[C@H]4CCCN(C(=O)C5CC5)C4)n3)c2C1 [Compound 17d, (S)-1-(2-((1-(Cyclopropanecarbonyl)Piperidin-3-yl)Amino)Pyrimidin-4-yl)-2-(2,3-Dihydrobenzofuran-5-yl)-4,6-Dihydropyrrolo[3,4-d]Imidazole-5(1H)-Carboxamide] |  | 41.2 nM | 
4 | NC(=O)N1Cc2nc(-c3ccc(Cl)c(Cl)c3)n(-c3ccnc(N[C@@H]4CCN(C(=O)C5CC5)C4)n3)c2C1 [Compound 18a, (R)-1-(2-((1-(Cyclopropanecarbonyl)Pyrrolidin-3-yl)Amino)Pyrimidin-4-yl)-2-(3,4-Dichlorophenyl)-4,6-Dihydropyrrolo[3,4-d]Imidazole-5(1H)-Carboxamide] |  | 2.69 nM | inhibition at 10 µM (RIPK3): > 50%; Selectivity/JNK3 of 18a, GSK3β (GSK3β; GSK3β vs JNK3): >2000 fold; inhibition at 10 µM (GSK3β; read-out: enzymatic inhibition of GSK3β in kinase panel screening): > 50%; Selectivity/JNK3 of 18a, JNK2 (JNK2; JNK2 vs JNK3): >80 fold; inhibition at 10 µM (JNK2; read-out: enzymatic inhibition of JNK2 in kinase panel screening): > 50%
5 | NC(=O)N1Cc2nc(-c3ccc4ccccc4c3)n(-c3ccnc(N[C@@H]4CCN(C(=O)C5CC5)C4)n3)c2C1 [Compound 18b, (R)-1-(2-((1-(Cyclopropanecarbonyl)Pyrrolidin-3-yl)Amino)Pyrimidin-4-yl)-2-(Naphthalen-2-yl)-4,6-Dihydropyrrolo[3,4-d]Imidazole-5(1H)-Carboxamide] | 4.52 nM |  | 
6 | NC(=O)N1Cc2nc(-c3ccc4c(c3)OCO4)n(-c3ccnc(N[C@@H]4CCN(C(=O)C5CC5)C4)n3)c2C1 [Compound 18c, (R)-2-(Benzo[d][1,3]Dioxol-5-yl)-1-(2-((1-(Cyclopropanecarbonyl)Pyrrolidin-3-yl)Amino)Pyrimidin-4-yl)-4,6-Dihydropyrrolo[3,4-d]Imidazole-5(1H)-Carboxamide] |  | 37.3 nM | 
7 | NC(=O)N1Cc2nc(-c3ccc4c(c3)CCO4)n(-c3ccnc(N[C@@H]4CCN(C(=O)C5CC5)C4)n3)c2C1 [Compound 18d, (R)-1-(2-((1-(Cyclopropanecarbonyl)Pyrrolidin-3-yl)Amino)Pyrimidin-4-yl)-2-(2,3-Dihydrobenzofuran-5-yl)-4,6-Dihydropyrrolo[3,4-d]Imidazole-5(1H)-Carboxamide] | 16.7 nM |  | 
8 | NC(=O)N1Cc2nc(-c3ccc(Cl)c(Cl)c3)n(-c3ccnc(N[C@H]4CCN(C(=O)C5CC5)C4)n3)c2C1 [Compound 19a, (S)-1-(2-((1-(Cyclopropanecarbonyl)Pyrrolidin-3-yl)Amino)Pyrimidin-4-yl)-2-(3,4-Dichlorophenyl)-4,6-Dihydropyrrolo[3,4-d]Imidazole-5(1H)-Carboxamide] |  | 113 nM | 
9 | NC(=O)N1Cc2nc(-c3ccc4ccccc4c3)n(-c3ccnc(N[C@H]4CCN(C(=O)C5CC5)C4)n3)c2C1 [Compound 19b, (S)-1-(2-((1-(Cyclopropanecarbonyl)Pyrrolidin-3-yl)Amino)Pyrimidin-4-yl)-2-(3,4-Dichlorophenyl)-4,6-Dihydropyrrolo[3,4-d]Imidazole-5(1H)-Carboxamide] | 48.2 nM |  | 
10 | NC(=O)N1Cc2nc(-c3ccc4c(c3)OCO4)n(-c3ccnc(N[C@H]4CCN(C(=O)C5CC5)C4)n3)c2C1 [Compound 19c, (S)-2-(Benzo[d][1,3]Dioxol-5-yl)-1-(2-((1-(Cyclopropanecarbonyl)Pyrrolidin-3-yl)Amino)Pyrimidin-4-yl)-4,6-Dihydropyrrolo[3,4-d]Imidazole-5(1H)-Carboxamide] |  | 744 nM | 
11 | NC(=O)N1Cc2nc(-c3ccc4c(c3)CCO4)n(-c3ccnc(N[C@H]4CCN(C(=O)C5CC5)C4)n3)c2C1 [Compound 19d, (S)-1-(2-((1-(Cyclopropanecarbonyl)Pyrrolidin-3-yl)Amino)Pyrimidin-4-yl)-2-(2,3-Dihydrobenzofuran-5-yl)-4,6-Dihydropyrrolo[3,4-d]Imidazole-5(1H)-Carboxamide] | 529 nM |  | 
12 | NC(=O)N1Cc2nc(-c3ccc(Cl)c(Cl)c3)n(-c3ccnc(N[C@H]4CCCN(C(=O)C5CCC5)C4)n3)c2C1 [Compound 20a, (S)-1-(2-((1-(Cyclobutanecarbonyl)Piperidin-3-yl)Amino)Pyrimidin-4-yl)-2-(3,4-Dichlorophenyl)-4,6-Dihydropyrrolo[3,4-d]Imidazole-5(1H)-Carboxamide] | 29.7 nM |  | 
13 | NC(=O)N1Cc2nc(-c3ccc(Cl)c(Cl)c3)n(-c3ccnc(N[C@H]4CCCN(C(=O)C5CCCC5)C4)n3)c2C1 [Compound 21a, (S)-1-(2-((1-(Cyclopentanecarbonyl)Piperidin-3-yl)Amino)Pyrimidin-4-yl)-2-(3,4-Dichlorophenyl)-4,6-Dihydropyrrolo[3,4-d]Imidazole-5(1H)-Carboxamide] | 24.8 nM |  | 

Where two headings read alike, the source gives them in different places.
